Measured values published in ChEMBL document CHEMBL3885861, “Open TG-GATES”.

Legend:
[1] = organism: Rattus norvegicus; test: Open TG-GATES - Regimen: Daily Repeat; type: toxicity, organism-based, Sprague-Dawley; set-up: regimen Daily Repeat, gender Male, age 6 weeks; conditions: in vivo, po, route gavage; for Cl: tissue Plasma
[2] = organism: Rattus norvegicus; test: Open TG-GATES - Regimen: Single; type: toxicity, organism-based, Sprague-Dawley; set-up: regimen Single, gender Male, age 6 weeks; conditions: in vivo, po, route gavage; for Plat: tissue Blood
[3] = 100 mg/kg, 3 h, tissue Plasma, dose level High

**Q.** What does the source list for `CSc1ccc2c(c1)N(CCC1CCCCN1C)c1ccccc1S2` (centres undefined) [THIORIDAZINE]?
**A.** Cl ([1]; 0 mg/kg, 72 h, dose level Control, time 3 day): 104.2 meq/L; Cl ([1]; 0 mg/kg, […], dose level Control, time 7 day): 106.2 meq/L; Cl ([1]; 0 mg/kg, […], dose level Control, time 14 day): 106.4 meq/L; Cl ([1]; 0 mg/kg, […], dose level Control, time 28 day): 106.2 meq/L; Cl ([1]; 10 mg/kg, 72 h, dose level Low, time 3 day): 104 meq/L; Cl ([1]; 10 mg/kg, […], dose level Low, time 7 day): 105.8 meq/L; Cl ([1]; 10 mg/kg, […], dose level Low, time 14 day): 106.8 meq/L; Cl ([1]; 10 mg/kg, […], dose level Low, time 28 day): 106.4 meq/L; Cl ([1]; 30 mg/kg, 72 h, dose level Middle, time 3 day): 103.2 meq/L; Plat ([1]; 30 mg/kg, […], tissue Blood, dose level Middle, time 7 day): 104 x10_4/uL; Neu ([1]; 30 mg/kg, […], tissue Blood, dose level Middle, time 28 day): 10.4%; Cl ([1]; 30 mg/kg, […], dose level Middle, time 7 day): 105.6 meq/L; Cl ([1]; 30 mg/kg, […], dose level Middle, time 14 day): 107.6 meq/L; Cl ([1]; 30 mg/kg, […], dose level Middle, time 28 day): 105.8 meq/L; Cl ([1]; 100 mg/kg, 72 h, dose level High, time 3 day): 103.2 meq/L; Cl ([1]; 100 mg/kg, […], dose level High, time 7 day): 105.8 meq/L; Cl ([1]; 100 mg/kg, […], dose level High, time 14 day): 107.6 meq/L; Cl ([1]; 100 mg/kg, […], dose level High, time 28 day): 106 meq/L; Plat ([2]; 0 mg/kg, 3 h, dose level Control): 104.6 x10_4/uL; Cl ([2]; 0 mg/kg, 3 h, tissue Plasma, dose level Control): 104.4 meq/L; Cl ([2]; 0 mg/kg, 6 h, tissue Plasma, dose level Control): 104.2 meq/L; Cl ([2]; 0 mg/kg, 9 h, tissue Plasma, dose level Control): 105.4 meq/L; Cl ([2]; 0 mg/kg, 24 h, tissue Plasma, dose level Control): 105.2 meq/L; LIVER ([2]; 10 mg/kg, 6 h, tissue Liver, dose level Low): 10.4 g; Cl ([2]; 10 mg/kg, 6 h, tissue Plasma, dose level Low): 106.2 meq/L; Cl ([2]; 10 mg/kg, 9 h, tissue Plasma, dose level Low): 105.4 meq/L; Plat ([2]; 10 mg/kg, 24 h, dose level Low): 103 x10_4/uL; Cl ([2]; 10 mg/kg, 24 h, tissue Plasma, dose level Low): 104.6 meq/L; Cl ([2]; 30 mg/kg, 3 h, tissue Plasma, dose level Middle): 105.2 meq/L; Plat ([2]; 30 mg/kg, 6 h, dose level Middle): 103.6 x10_4/uL; Cl ([2]; 30 mg/kg, 6 h, tissue Plasma, dose level Middle): 107 meq/L; Cl ([2]; 30 mg/kg, 9 h, tissue Plasma, dose level Middle): 106.8 meq/L; Cl ([2]; 30 mg/kg, 24 h, tissue Plasma, dose level Middle): 104.4 meq/L; Plat ([2]; 100 mg/kg, 3 h, dose level High): 103.1 x10_4/uL; Cl [2, 3]: 107 meq/L; IP [2, 3]: 10.4 mg/dL; Cl ([2]; 100 mg/kg, 6 h, tissue Plasma, dose level High): 108.4 meq/L; Cl ([2]; 100 mg/kg, 9 h, tissue Plasma, dose level High): 107.2 meq/L; Cl ([2]; 100 mg/kg, 24 h, tissue Plasma, dose level High): 104.4 meq/L
